Key:
[1] = tested on: bovine CD3-positive T cells; experiment: Biological activity test: proliferation of bovine T cells co-cultured with bovine PD-L1 expressing cells (CFSE); type: cell-based; details: 6-day co-culture, anti-CD3/anti-CD28 stimulation
Experimental: Briefly, bovine PBMCs isolated from peripheral blood of healthy cattle were suspended in PBS to give a concentration of 10×10^6 cells/ml, and reacted with carboxyfluorescein succinimidyl ester (CFSE) at room temperature for 20 min. […] After washing, the PBMCs were reacted with anti-mouse IgG1 microbeads (Miltenyi Biotec) at 4° C. for 15 min, followed by isolation of CD3-positive T cells using autoMACS™ Pro(Miltenyi Biotec). To the isolated CD3-positive T cells, anti-bovine CD3 mouse antibody (WSU Monoclonal Antibody Center) and anti-bovine CD28 mouse antibody (Bio-Rad) were added. […] As a control for antibodies, serum-derived bovine IgG (Sigma-Aldrich) was used; as a control for PD-L1 expressing cells. EGFP expressing cells transfected with pEGFP-N2 were used. After a 6-day coculture, cells were harvested and reacted with anti-bovine CD4 mouse antibody and anti-bovine CD8 mouse antibody (Bio-Rad) at room temperature for 30 min. For the labeling of antibodies, Zenon Mouse IgG1 Labeling Kits (Life Technologies) or Lightning-Link Kit (Innova Biosciences) was used. For analysis, FACS Verse (BD Biosciences) was used. For washing operation after culturing and dilution of antibody, PBS supplemented with 1% bovine serum albumin (Sigma-Aldrich) was used.

[2] = target: T1, bovine PD-L1 expressing cells (Bos taurus, UniProt C5NU11); experiment: Binding specificity to bovine PD-L1 expressing cells by flow cytometry
T1 construct: expressed in transfected cells; host or cells: CHO-DG44
T1 sequence (C5NU11 19-289): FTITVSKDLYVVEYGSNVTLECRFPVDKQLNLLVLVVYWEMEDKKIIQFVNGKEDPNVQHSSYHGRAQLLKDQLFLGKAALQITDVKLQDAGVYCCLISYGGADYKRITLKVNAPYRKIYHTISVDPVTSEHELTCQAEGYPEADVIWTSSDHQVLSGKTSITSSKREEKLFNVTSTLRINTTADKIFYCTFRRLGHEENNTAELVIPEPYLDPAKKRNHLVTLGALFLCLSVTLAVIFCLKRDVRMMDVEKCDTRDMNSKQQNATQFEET
Experimental: Bovine PD-L1 membrane expressing cells were prepared by the procedures described below. First, 2.5 μg of pEGFP-N2-boPD-L1 or pEGFP-N2 (negative control) was introduced into 4×10^6 CHO-DG44 cells using Lipofectamine LTX (Invitrogen). Forty-eight hours later, the medium was exchanged with CD DG44 medium (Life Technologies) containing G418 (Enzo Life Science) 800 μg/ml, GlutaMAX supplement (Life Technologies) 20 ml/L, and 10% Pluronic F-68 (Life Technologies) 18 ml/L, followed by selection and cloning by limiting dilution (bovine PD-L1 expressing cell clone). In order to confirm the expression of bovine PD-L1 in the thus prepared expressing cell clone, intracellular localization of EGFP was visualized with an inverted confocal laser microscope LSM700 (ZEISS).
After washing, APC-labeled anti-rat Ig goat antibody (Southern Biotech) or Alexa Fluor 647-labeled anti-bovine IgG (H+L) goat F(ab′)2 (Jackson ImmunoResearch) was reacted at room temperature for 30 min. As negative control antibody, rat IgG2a (k) isotype control (BD Biosciences) or bovine IgG1 antibody (Bethyl) was used. After washing, each rat antibody or rat-bovine chimeric antibody bound to cell surfaces was detected by FACS Verse (BD Biosciences). For every washing operation and dilution of antibody, PBS supplemented with 1% bovine serum albumin (Sigma-Aldrich) was used.

B1: ch4G12: rat-bovine chimeric anti-bovine PD-L1 antibody, 4G12 variable regions, mutated bovine IgG1 and Igλ constant regions; SEQ ID NOS: 105 and 106 (protein)
light: MESQTHVLISLLLSVSGTYGDIAITQSPSSVAVSVGETVTLSCKSSQSLLYSENQKDYLGWYQQKPGQTPKPLIYWATNRHTGVPDRFTGSGSGTDFTLIISSVQAEDLADYYCGQYLVYPFTFGPGTKLELKQPKSPPSVTLFPPSTEELNGNKATLVCLISDFYPGSVTVVWKADGSTITRNVETTRASKQSNSKYAASSYLSLTSSDWKSKGSYSCEVTHEGSTVTKTVKPSECS
heavy: MGWSQIILFLVAAATCVHSQVQLQQSGAELVKPGSSVKISCKASGYTFTSNFMHWVKQQPGNGLEWIGWIYPEYGNTKYNQKFDGKATLTADKSSSTAYMQLSSLTSEDSAVYFCASEEAVISLVYWGQGTLVTVSSASTTAPKVYPLSSCCGDKSSSTVTLGCLVSSYMPEPVTVTWNSGALKSGVHTFPAVLQSSGLYSLSSMVTVPGSTSGQTFTCNVAHPASSTKVDKAVDPTCKPSPCDCCPPPPVAGPSVFIFPPKPKDTLTISGTPEVTCVVVDVGHDDPEVKFSWFVDDVEVNTATTKPREEQFNSTYRVVSALRIQHQDWTGGKEFKCKVHNEGLPSSIVRTISRTKGPAREPQVYVLAPPQEELSKSTVSLTCMVTSFYPDYIAVEWQRNGQPESEDKYGTTPPQLDADSSYFLYSKLRVDRNSWQEGDTYTCVVMHEALHNHYTQKSTSKSAGK
modifications: chimeric L chain; chimeric H chain
Effect on suppression of T cell proliferation by bovine PD-L1 expressing cells [1]: inhibits this suppression in CD4-positive T cells
Binding to bovine PD-L1 expressing cells [2]: binds to bovine PD-L1 expressing cells in the same manner as rat anti-bovine PD-L1 antibody 4G12

— US11312773B2, “Anti-PD-L1 antibody” (Fuso Pharmaceutical Industries, Ltd., priority 2016, dated 2022)
